Results reported in patent publication US20250326790A1, “PEPTIDES BINDING TO HYPOXIA INDUCIBLE FACTORS AND THEIR USE” (UNIVERSITY OF SOUTHAMPTON, priority 2021, published 2025).
pKd: −log10 of the molar value.

By UniProt entry, the sequences of proteins in these tests, tags left out. Residues count along the entry.
UniProt Q16665, 228-298: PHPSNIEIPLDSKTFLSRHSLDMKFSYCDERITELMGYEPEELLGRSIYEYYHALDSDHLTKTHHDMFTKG
UniProt Q16665, 238-349 limits assumed: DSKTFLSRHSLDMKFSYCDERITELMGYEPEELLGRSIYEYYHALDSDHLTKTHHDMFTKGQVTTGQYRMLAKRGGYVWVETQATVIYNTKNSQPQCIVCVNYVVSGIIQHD
UniProt Q99814, 230-300: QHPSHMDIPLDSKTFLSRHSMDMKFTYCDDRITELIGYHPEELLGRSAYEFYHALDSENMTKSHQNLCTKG
UniProt Q99814, 240-350 limits assumed: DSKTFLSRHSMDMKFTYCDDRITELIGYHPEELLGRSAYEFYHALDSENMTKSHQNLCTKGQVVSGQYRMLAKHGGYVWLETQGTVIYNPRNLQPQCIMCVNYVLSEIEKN

Legend:
[1] = target: recombinantly expressed PAS-B domain of HIF-1α (Homo sapiens (Human), UniProt Q16665); experiment: MST binding affinity to PAS-B domain of HIF-1α; settings: microscale thermophoresis, 50 nM labelled protein, 10% DMSO
Protocol: (§1) MST experiments were performed on a Monolith NT.115 system (Nanotemper Technologies GmbH), in assay buffer containing 50 nM labelled protein, 10% DMSO and 0.05% TWEEN-20. MST measurements were performed using 50% LED and 50% MST power.

[2] = target: recombinantly expressed PAS-B domain of HIF-2α (Homo sapiens (Human), UniProt Q99814); experiment: MST binding affinity to PAS-B domain of HIF-2α; settings: microscale thermophoresis, 50 nM labelled protein, 10% DMSO
Protocol: as §1

SMILES	pKd [1]	pKd [2]
CC(C)CC[C@H](NC(=O)c1ccco1)C(=O)N[C@@H](Cc1ccc(I)cc1)C(=O)N[C@@H](CS)C(N)=O [Example 8]	4.77	–
CCCC(=O)N[C@@H](CCC(C)C)C(=O)N[C@@H](Cc1ccc(I)cc1)C(=O)N[C@@H](CS)C(N)=O [Example 11]	4.89	–
CCS(=O)(=O)N[C@@H](CCC(C)C)C(=O)N[C@@H](Cc1ccc(I)cc1)C(=O)N[C@@H](CS)C(N)=O [Example 14]	4.66	–
CC(C)CC[C@H](NS(=O)(=O)c1ccc(Oc2ccccc2)cc1)C(=O)N[C@@H](Cc1ccc(I)cc1)C(=O)N[C@@H](CS)C(N)=O [Example 17]	–	5.28
CC(C)CC[C@H](NS(=O)(=O)c1ccc(Cl)s1)C(=O)N[C@@H](Cc1ccc(I)cc1)C(=O)N[C@@H](CS)C(=O)O [Example 19]	5.08	–
CC(C)CC[C@H](NS(=O)(=O)c1cccs1)C(=O)N[C@@H](Cc1ccc(I)cc1)C(=O)N[C@@H](CS)C(N)=O [Example 23]	4.89	–
CC(C)CC[C@H](NS(=O)(=O)c1ccc(Br)s1)C(=O)N[C@@H](Cc1ccc(I)cc1)C(=O)N[C@@H](CS)C(N)=O [Example 24]	4.60	–
CCNC(=O)[C@H](CS)NC(=O)[C@H](Cc1ccc(I)cc1)NC(=O)[C@H](CCC(C)C)NS(=O)(=O)c1ccc(Cl)s1 [Example 31]	4.66	–
CC(C)CC[C@H](NS(=O)(=O)c1ccc(Cl)s1)C(=O)N[C@@H](Cc1ccc(I)cc1)C(=O)N[C@@H](CS)C(=O)NCC(F)(F)F [Example 32]	4.82	–
CC(C)CC[C@H](NS(=O)(=O)c1ccc(Cl)s1)C(=O)N[C@@H](Cc1ccc(I)cc1)C(=O)N[C@@H](CS)C(=O)NCCNc1ccccc1 [Example 39]	4.77	–
COC(=O)C(CCCNC(=N)N)NC(=O)[C@H](CS)NC(=O)[C@H](Cc1ccc(I)cc1)NC(=O)[C@H](CCC(C)C)NS(=O)(=O)c1ccc(Cl)s1 (stereo partly shown) [Example 42]	4.60	–
CC(C)CC[C@H](NS(=O)(=O)c1ccc(Cl)s1)C(=O)N[C@@H](Cc1ccc(I)cc1)C(=O)N[C@@H](CS)C(=O)NC1CCOCC1 [Example 44]	4.82	–
CC(C)CC[C@H](NS(=O)(=O)c1ccc(Cl)s1)C(=O)N[C@@H](Cc1ccc(I)cc1)C(=O)N[C@@H](CS)C(=O)NCc1ccccc1 [Example 45]	4.92	–
CC(C)CC[C@H](NS(=O)(=O)c1ccc(Cl)s1)C(=O)N[C@@H](Cc1ccc(I)cc1)C(=O)N[C@@H](CS)C(=O)NCc1cccs1 [Example 47]	4.92	–
CC(C)CC[C@H](NS(=O)(=O)c1ccc(Cl)s1)C(=O)N[C@@H](Cc1ccc(I)cc1)C(=O)N[C@@H](CS)C(=O)NCc1ccccn1 [Example 48]	–	5.59
CC(C)CC[C@H](NS(=O)(=O)c1ccc(-c2cc(C(F)(F)F)nn2C)s1)C(=O)N[C@@H](Cc1ccc(I)cc1)C(=O)N[C@@H](CS)C(=O)NCCCCl [Example 51]	–	5.51
